Assay results as given in ChEMBL document CHEMBL2176934, “Discovery of highly selective and orally active lysophosphatidic acid receptor-1 antagonists with potent activity on human lung fibroblasts” (J Med Chem, 2012).

Legend:
HLF = assay: Inhibition of LPA-induced proliferation of HLF incubated for 1 hr prior to LPA-challenge measured after 48 hrs by BrdU incorporation assay; assay type: functional; conditions: Homo sapiens
Homo sapiens = species: Homo sapiens; assay: Selectivity ratio of IC50 for human recombinant LPA3 to IC50 for human recombinant LPA1

C[C@H](OC(=O)Nc1c(-c2ccccc2F)cnn1C)c1ccccc1Cl
inhibition (HLF): inactive

C[C@@H](OC(=O)Nc1c(-c2ccc(-c3ccc(CC(=O)O)cc3)cc2)cnn1C)c1ccccc1
Ratio IC50 (Homo sapiens): > 850

The source made the active and inactive calls. The calls are words filed in the database; no cut-off is given here.
